Broadly, the IC50 is the midpoint of a concentration-inhibition curve. A high value points to lower potency.

By UniProt entry, the sequences of proteins in these tests, tags left out.
UniProt P09619, whole entry: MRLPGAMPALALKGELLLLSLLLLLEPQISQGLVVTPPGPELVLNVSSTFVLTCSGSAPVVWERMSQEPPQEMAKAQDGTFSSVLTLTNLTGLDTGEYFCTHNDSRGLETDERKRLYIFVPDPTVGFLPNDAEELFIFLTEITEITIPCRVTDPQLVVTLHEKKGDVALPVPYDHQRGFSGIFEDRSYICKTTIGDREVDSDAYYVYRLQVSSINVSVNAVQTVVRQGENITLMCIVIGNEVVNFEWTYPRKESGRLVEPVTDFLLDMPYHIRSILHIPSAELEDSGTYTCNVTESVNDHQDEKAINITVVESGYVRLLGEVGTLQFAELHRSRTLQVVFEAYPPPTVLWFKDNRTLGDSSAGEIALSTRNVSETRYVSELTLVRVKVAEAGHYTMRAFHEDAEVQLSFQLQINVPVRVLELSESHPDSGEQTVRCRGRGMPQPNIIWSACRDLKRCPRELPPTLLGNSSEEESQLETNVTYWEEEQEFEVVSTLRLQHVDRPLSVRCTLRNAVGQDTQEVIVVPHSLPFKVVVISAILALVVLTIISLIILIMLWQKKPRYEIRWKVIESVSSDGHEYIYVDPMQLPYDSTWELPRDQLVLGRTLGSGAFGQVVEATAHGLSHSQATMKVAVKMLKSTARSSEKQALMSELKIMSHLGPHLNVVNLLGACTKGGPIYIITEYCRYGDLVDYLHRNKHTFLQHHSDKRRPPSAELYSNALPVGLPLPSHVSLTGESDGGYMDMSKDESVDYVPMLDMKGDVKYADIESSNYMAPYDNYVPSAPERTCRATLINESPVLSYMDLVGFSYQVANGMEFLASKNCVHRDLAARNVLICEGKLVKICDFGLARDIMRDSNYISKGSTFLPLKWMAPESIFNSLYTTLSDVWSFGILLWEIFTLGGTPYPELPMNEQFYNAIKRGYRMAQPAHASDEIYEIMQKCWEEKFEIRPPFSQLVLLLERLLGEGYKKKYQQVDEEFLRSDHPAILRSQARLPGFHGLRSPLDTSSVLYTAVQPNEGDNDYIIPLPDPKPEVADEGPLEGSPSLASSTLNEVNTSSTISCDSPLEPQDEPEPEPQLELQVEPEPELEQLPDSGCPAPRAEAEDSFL

Each structure is given as a SMILES string.

The target of the assay is Platelet-derived growth factor receptor beta (Homo sapiens, UniProt P09619). Description: Test concentration required to achieve 50% inhibition of tyrosine phosphorylation on human Platelet-derived growth factor receptor beta (PDGF RTK).

With `CN(C)c1ccc(/C=C2\C(=O)Nc3ccccc32)cc1`, the IC50 was 19.4 µM.

Source of the values: ChEMBL document CHEMBL1131018 (J Med Chem, 1998).
